Earlier results, collected in PMC5831081 (Biochemistry, 2017).

Tested on: CYP2C9
Conditions: cited from earlier work

(S)-flurbiprofen
factor of decrease in affinity in the presence of POR: 48
